Test results taken from ChEMBL document CHEMBL2202969, “Discovery and evolution of phenoxypiperidine hydroxyamide dual CCR3/H₁ antagonists. Part I” (Bioorg Med Chem Lett, 2012).

biological target: C-C chemokine receptor type 3 (Homo sapiens) (UniProt P51677); test: Displacement of radioligand from human CCR3 expressed in recombinant CHOK1 cells at 1 uM after 1 hr; details: CHO-K1

| inhibition [%] | SMILES |
| --- | --- |
| > 70 | N#Cc1cccc(OC[C@@H](O)CN2CCC(Oc3ccc(Cl)c(Cl)c3)CC2)c1 |
| > 70 | O=C(NC[C@@H](O)CN1CCC(Oc2ccc(Cl)c(Cl)c2)CC1)c1c[nH]c2ccccc12 |
| > 70 | O=C(NC[C@@H](O)CN1CCC(Oc2ccc(Cl)c(Cl)c2)CC1)c1n[nH]c(=O)c2ccccc12 |

Continued, compound first:

| SMILES | inhibition [%] |
| --- | --- |
| N#Cc1cccc(OCCCN2CCC(Oc3ccc(Cl)c(Cl)c3)CC2)c1 | > 70 |
| CS(=O)(=O)c1ccccc1C(=O)NCC(O)CNC1CCN(Cc2ccc(Cl)c(Cl)c2)CC1 (stereo not given) | > 70 |
